Measurements reported in US20230181673A1, “TRI-PEPTIDES AND TREATMENT OF METABOLIC, CARDIOVASCULAR AND INFLAMMATORY DISORDERS” (Diapin Therapeutics, LLC, priority 2018, published 2023).

System: plasma liver enzymes, lipids and cytokines
Conditions: endpoint; for Plasma TG / NASH-diet-induced increase in plasma AST, ALT and ALP: glycine 0.33, DT-109 0.125 or 0.5 mg/g/day; for NASH-diet-induced increase in plasma AST, ALT and ALP: 12 weeks

Molecule	Plasma MCP-1/CCL2 and resistin (NASH-diet)	Plasma TG (NASH-diet)	NASH-diet-induced increase in plasma AST, ALT and ALP	Plasma TC (NASH-diet, 0.5 mg/g/day DT-109)
NCC(=O)O [glycine, reference compound]	lower	decreased	attenuated	–
Gly-Gly-Leu [DT-109]	lower	decreased	attenuated	decreased
